How the values were obtained:
[1] = Rat pharmacokinetic assay; details: intragastrically administered with 10 mg/kg
Experimental: For a rat pharmacokinetic assay, male SD rats (180 g to 240 g) were selected and fasted overnight. Three rats were intragastrically administered with 10 mg/kg. The blood of the rats was collected before the administration and at 15 min, 30 min, 1 h, 2 h, 4 h, 8 h, and 24 h after the administration. The blood samples were centrifuged at 4°C for 6 minutes at 8,000 r/min, and plasma was collected and stored at -20°C. Plasma at each time point was taken, and added with 3 to 5 times the amount of an internal standard-containing acetonitrile solution to mix, and the mixture was vortex mixed for 1 minute, and centrifuged at 4°C for 10 minutes at 13,000 r/min. The supernatant was taken and mixed with 3 times the amount of water, and an appropriate amount of the mixed solution was taken for LC-MS/MS analysis. The primary pharmacokinetic parameters were analyzed by WinNonlin 7.0 software non-atrioventricular model.

[2] = Mouse pharmacokinetic assay
Experimental: For a mouse pharmacokinetic assay, male ICR mice (20 g to 25 g) were selected and fasted overnight. Three mice were intragastrically administered with 10 mg/kg. The blood of the mice was collected before the administration and at 15 min, 30 min, 1 h, 2 h, 4 h, 8 h, and 24 h after the administration. The blood samples were 6,800 g and centrifuged at 4°C for 6 minutes, plasma was collected and stored at -80°C. Plasma at each time point was taken, and added with 3-5 times the amount of internal standard-containing acetonitrile to mix, and the mixture was vortex mixed for 1 minute, and centrifuged at 4°C for 10 minutes at 13,000 r/min. The supernatant was mixed with 3 times the amount of water, and an appropriate amount of the mixed solution was taken for LC-MS/MS analysis. The primary pharmacokinetic parameters were analyzed by WinNonlin 7.0 software non-atrioventricular model.

[3] = Thermodynamic solubility test; details: FaSSGF pH 1.6, FaSSIF pH 6.5, PBS pH 7.4; 4 mg/mL, room temperature overnight
Experimental: Fasted state simulated gastric fluid (FaSSGF, pH 1.6, 80µM sodium taurocholate, 20µM lecithin, 0.1g pepsin and 34.2mM sodium chloride per liter of solution), fasted state simulated intestinal fluid (FaSSIF, pH 6.5, 3mM sodium taurocholate, 0.2mM lecithin, 38.4 mM sodium hydroxide, 68.62mM sodium chloride and 19.12mM maleic acid per liter of solution) and phosphate buffered saline (PBS, pH 7.4, 100mM phosphate buffer, 11g disodium hydrogen carbonate and 3.5g sodium dihydrogen phosphate dihydrate per liter of solution) as test buffers were prepared.
The compound was accurately weighed and diluted with the above test buffers of different pH values to prepare a working solution at 4 mg/mL. The mixture was shaken at 1000 rpm for 1 h and equilibrated at room temperature overnight. Thereafter, the sample was centrifuged at 12000 rpm for 10 min to remove undissolved particles. The supernatant was transferred into a new centrifuge tube, and the compound concentration in the supernatant was determined by LC-MS/MS.

[4] = Solubility in dichloromethane/methanol system; details: dichloromethane/methanol system (volume ratio = 1:1)
Experimental: This solvent system was used to prepare an amorphous solid dispersion thin film, and the experimental procedures are as follows: • 1) Thin films of the amorphous solid dispersions were prepared in 96-well plates according to the mass ratios listed in Table 4-1. A total of ten identical 96-well plates were prepared, with each well containing 400 µg of API (generally 10 times the maximum saturated solubility in physiological solutions). • 2) A total of ten 96-well plates were prepared via rapid solvent evaporation method, among which 8 plates were used for physiologically relevant dissolution tests, 1 plate for physical stability evaluation, and 1 plate served as the excipient control. The detailed information is shown in Table 4-1. • 3) Eight 96-well plates loaded with amorphous solid dispersion thin films were subjected to physiologically relevant dissolution tests.

[5] = Canine pharmacokinetic assay of compounds; details: for clearance: following intravenous administration; for Tmax: intragastric administration, 5 mg/kg; for systemic exposure: via both oral and intravenous routes
Experimental: For a canine pharmacokinetic assay, male Beagle dogs (8 kg to 10 kg) were selected and fasted overnight. Three Beagle dogs were intragastrically administered with 5 mg/kg. The blood of the dogs was collected before the administration and at 15 min, 30 min, 1 h, 2 h, 4 h, 8 h, and 24 h after the administration. Another 3 Beagle dogs were intravenously administered with 1 mg/kg. The blood of the dogs was collected before the administration and at 15 min, 30 min, 1 h, 2 h, 4 h, 8 h, and 24 h after the administration. The blood samples were centrifuged at 4°C for 6 minutes at 8,000 r/min, plasma was collected and stored at -20°C. Plasma at each time point was taken, added with 3 to 5 times the amount of internal standard-containing acetonitrile to mix, vortex mixed for 1 minute, and centrifuged at 4°C for 10 minutes at 13,000 r/min. The supernatant was taken and mixed with 3 times the amount of water, and an appropriate amount of the mixed solution was taken for LC-MS/MS analysis. The primary pharmacokinetic parameters were analyzed by WinNonlin 7.0 software non-atrioventricular model.

[6] = mouse, intragastric administration, 10 mg/kg
[7] = summary statement for rat, mouce and canine

Cc1cnc(-c2cc(O[C@@H](C)[C@H](C)O)cc(C(=O)N[C@H](C)c3cnc(C(F)(F)F)nc3)c2F)s1
pharmacokinetic properties [1]: good and comparable pharmacokinetic properties | Tmax [2, 6]: 0.50 h | pharmacokinetic properties [2, 6]: good and comparable pharmacokinetic properties | pharmacokinetic properties [2, 7]: comparable pharmacokinetic properties | solubility [3]: good solubility

Cc1cnc(-c2cc(O[C@@H](C)[C@@H](C)O)cc(C(=O)N[C@H](C)c3cnc(C(F)(F)F)nc3)c2F)s1
pharmacokinetic properties [1]: good and comparable pharmacokinetic properties | Tmax [2, 6]: 0.50 h | pharmacokinetic properties [2, 6]: good and comparable pharmacokinetic properties | pharmacokinetic properties [2, 7]: comparable pharmacokinetic properties | solubility [3]: good solubility | solubility [4]: high solubility

Cc1cnc(-c2cc(O[C@H](C)[C@H](C)O)cc(C(=O)N[C@H](C)c3cnc(C(F)(F)F)nc3)c2F)s1
pharmacokinetic properties [1]: good and comparable pharmacokinetic properties | Tmax [2, 6]: 1.00 h | pharmacokinetic properties [2, 6]: good and comparable pharmacokinetic properties | pharmacokinetic properties [2, 7]: comparable pharmacokinetic properties | solubility [3]: good solubility | half-lives [5]: long half-lives | clearance [5]: low clearance | Tmax [5]: 1.00 h | Vz ([5]; intravenous administration, 1 mg/kg): 5.00 L/kg | systemic exposure [5]: high systemic exposure

Cc1cnc(-c2cc(O[C@H](C)[C@@H](C)O)cc(C(=O)N[C@H](C)c3cnc(C(F)(F)F)nc3)c2F)s1
pharmacokinetic properties [1]: good and comparable pharmacokinetic properties | Tmax [2, 6]: 1.00 h | pharmacokinetic properties [2, 6]: good and comparable pharmacokinetic properties | pharmacokinetic properties [2, 7]: comparable pharmacokinetic properties | solubility [3]: good solubility | half-lives [5]: long half-lives | clearance [5]: low clearance | Tmax [5]: 1.00 h | systemic exposure [5]: high systemic exposure
